Reference: the NIST ThermoML archive (doi:10.1016/j.jct.2016.09.012)

Key:
[1] = Crystal; DTA
[2] = Molar enthalpy of transition or fusion; details: Crystal; DSC

Normal melting temperature [1]: 107.20 ± 1.1 °C
Molar enthalpy of transition or fusion [2]: 6 ± 0.239 kcal/mol
SMILES: O=Cc1ccc([N+](=O)[O-])cc1 [4-nitrobenzaldehyde]

± gives the expanded uncertainty stated by the source.
